Assays:
[1] = Measurement of viscosity (cone-and-plate viscosimeter); format: physicochemical
Description: For measuring the viscosity, an MC 200 cone-and-plate viscosimeter from Anton Paar GmbH (cone unit MK 22/50 mm, 10) was used. First, the shear rate was varied with a stepped slope and subsequently the viscosity was determined at a constant shear rate (300 s^−1) every 30 seconds. The measurement was carried out at 25° C.

[2] = test system: L929 mice fibroblast cells; test: Cytotoxicity (residual protein content of the cells); format: cell-based; settings: toxicological concentration limit: reduction of protein content of L929 cells by more than 30% relative to negative control; incubation 48 h
Description: The cytotoxicity of various monomers was determined by a certified laboratory by means of L929 mice fibroblast cells. As a (toxic) positive control, Triton X 100 was added to L929 cells with a final concentration of 1% (v/v). As a (non-toxic) negative control, a cell culture medium was used.
After completion of the incubation, the residual protein content of the cells was determined. A reduction of the protein content from L929 cells by more than 30%, relative to the negative control, was evaluated as cytotoxic (which corresponds to the toxicological concentration limit). From this, the half maximal effective concentration (EC50), at which 50% of the cells are damaged, can be calculated.

## 1,4-butanediol dipropargyl carbonate
[1]; 25° C.
  Viscosity, in words: significantly higher viscosity
[1]; constant shear rate 300 s^-1, 25° C.
  Viscosity at 25° C.: 44.2 mPa*s
[2]
  Concentration limit: >300 µM
